## Ab-14 light chain CDR variants: yeast mating affinities

Target: peptide PDVDLGDISGINAS, taken from heptad repeat 2 (HR2) of SARS-CoV-2 spike.

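Phage display of a naive human antibody library on the peptide gave the parent. These sequences belong to a second round, designed from the earlier measurements on random variants of the parent. Group labels follow the data file (Ctrl: baseline library sampled from a position-specific scoring matrix, with some repeated check sequences; En: ensemble of fine-tuned language models; GP: Gaussian process model; HC: hill climbing; Gen: genetic algorithm; Gibbs: Gibbs sampling; a sequence that several methods proposed may carry one label only). AlphaSeq pools MATa yeast showing the antibodies with MATalpha yeast showing the peptide. Mating (16 h, 30 °C) was followed by selection of diploids and sequencing of their barcodes. The ratio of observed to expected reads was calibrated, replicate by replicate, on BCL2-family standards whose Kd was known from biolayer interferometry. There are six technical replicates.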

Ab-14 is the parent antibody, in scFv form: VH, then a (GGGGS)3 linker, then VL. The heavy chain is unchanged in all variants.
VH: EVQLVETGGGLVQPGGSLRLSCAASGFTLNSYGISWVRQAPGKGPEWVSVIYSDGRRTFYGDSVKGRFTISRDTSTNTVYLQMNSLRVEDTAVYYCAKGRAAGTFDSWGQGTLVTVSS
VL: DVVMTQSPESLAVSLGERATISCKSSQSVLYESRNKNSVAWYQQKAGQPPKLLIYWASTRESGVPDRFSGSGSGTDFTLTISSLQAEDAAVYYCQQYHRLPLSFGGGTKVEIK

Each variant is given by its three light chain CDRs, as the data file delimits them; those of the parent are KSSQSVLYESRNKNSVA, WASTRES, QQYHRLPLS. Variants here have at most six changes. Kd is apparent (estimated from mating counts) and averaged on the log scale over replicates with a signal. Smaller is tighter. Where no diploid with the target was found in any replicate, the entry reads "nd": below detection, most likely a poor binder, though not proof of it. In the paper, a design with two or fewer of six values counts as a poor binder. As a blank, each scFv also met three strains without target: over all light chain designs, 4% of these pairings were detected, typically at 430 nM and seldom below 38 nM. The parent sequence was in this pool as ten entries: three were never detected, three once, and four in most replicates, with averages from 2.2 nM to 240 nM. A sequence measured in both rounds can read differently, since the two assays cover different ranges.

With KLPQSDLYESRNKNSVA / NASTRLS / QQYHRLPLS [GP_Gen] the result was 510 pM (6 of 6 replicates).
With KSSQSVLYLSENKNSVA / KASTRFS / QQYHRLPLS [Ctrl] the result was 17 nM (6 of 6 replicates).
With KLSQSFLYESRMKNSVA / NASTRES / QQYHRLPLS [GP_Gen] the result was 1.9 nM (6 of 6 replicates).
With MSQQSVLYEHRNENSVA / DASTRES / QQPHRLPLS [Ctrl] the result was 1.3 µM (2 of 6 replicates).
With KSEQSELYESRNKNSVA / NASQRES / QQYHRLPLS [GP_Gen] the result was 1.8 nM (6 of 6 replicates).
With KASTSVLYESINKNSVA / WASTRES / QQYHRLPLS [Ctrl] the result was 88 nM (1 of 6 replicates).
With KVSQSHLYESRNKNSVA / QASTRES / QQYHRLPLS [GP_Gen] the result was 4.3 nM (6 of 6 replicates).
With KLSQSVGYESRNVNNVA / NASTREL / QQYHRLPLS [GP_Gibbs] the result was 480 pM (6 of 6 replicates).
With KLQQSVLYESRNKNSVA / EASTRSS / QQYHRLPLS [GP_Gen] the result was 6.2 nM (6 of 6 replicates).
With KSLQSWEYESRNKNSVA / HASTREQ / QQYHRLPLS [GP_HC] the result was 630 pM (6 of 6 replicates).
With KCSQSVLFQSRNKNSVA / DASTRES / QQYHRLPLS [GP_HC] the result was 820 pM (6 of 6 replicates).
With KLPWSTLYESRQKNSVA / WASTRES / QQYHRLPLS [GP_HC] the result was 6.0 nM (6 of 6 replicates).
With KSSQSNLMESRNKNSVA / WASTRES / QQYHRLPLS [Ctrl] the result was 200 nM (6 of 6 replicates).
With KLPQSFLYESRNKNSVA / NASQRES / QQYHRLPLS [GP_Gen] the result was 520 pM (6 of 6 replicates).
With KVSQSQLYESRNKNSVA / HASQRES / QQYHRLPLS [GP_Gen] the result was 840 pM (6 of 6 replicates).
With KFYQSVLYESRNKNSVA / HASTRED / QQYHRLPLS [GP_HC] the result was 3.0 nM (6 of 6 replicates).
With KSSQSWLYESRNKNSVA / WASTREE / QQYHRLPLS [Ctrl] the result was 1.7 nM (6 of 6 replicates).
With KLSQSVEYESRMKNSVA / NASTRES / QQYHRLPLS [GP_Gen] the result was 1.1 nM (6 of 6 replicates).
With KLSQSELYESRNPNSVA / NASQRES / QQYHRLPLS [GP_Gen] the result was 610 pM (6 of 6 replicates).
With KTSQSVLYESRNKNSVA / DASTRES / QQYHRLPLS [En_HC] the result was 1.1 nM (6 of 6 replicates).
With KVSQSWLYESRNKNAVA / EASQRES / QQYHRLPLS [GP_Gen] the result was 480 pM (6 of 6 replicates).
With KSSQSVIYESNNQNSVA / GASTRES / QQPFRLPLS [Ctrl] the result was nd (0 of 6 replicates).
With KSPQSVLYESRNKNSVA / AASTRED / QSYHRLPLS [GP_HC] the result was 7.2 nM (6 of 6 replicates).
With KLQQSCLYESRNKNSVA / NASTRES / QQYHRLPLS [GP_Gen] the result was 680 pM (6 of 6 replicates).
With KLSQSVLYEQRNKNSVA / EASQRES / QQYHRLPLS [GP_Gen] the result was 590 pM (6 of 6 replicates).
With KVSQSVLYESRMKNSVA / DASTRES / QQYHRLPLE [GP_HC] the result was 3.6 nM (6 of 6 replicates).
With KLQQSQLYESRNKNSVA / EASTRLS / QQYHRLPLS [GP_Gen] the result was 1.8 nM (6 of 6 replicates).
With KSSQSVLYESRNKNSVA / FASTRES / QQYHRLPLA [Ctrl] the result was 150 nM (1 of 6 replicates).
With KSSQGVEYESREKNSVA / SASTRES / QQYHRLPLS [Ctrl] the result was 14 nM (6 of 6 replicates).
With HSSPSEEYESRNKNSVA / NASSRES / QQYHRLPLS [GP_HC] the result was 3.5 nM (6 of 6 replicates).
With KVSFSVMLESRNKNAVA / EASTRES / QQYHRLPLS [GP_Gibbs] the result was 2.0 nM (6 of 6 replicates).
With KSSQSVLEMSLNDNSVA / WAMTRES / QQYHRLPLS [Ctrl] the result was nd (0 of 6 replicates).
With KLQQSVLYESRNKNSVA / NASQREE / QQYHRLPLS [GP_Gen] the result was 840 pM (6 of 6 replicates).
With KLSMSGLYESRNWNSVA / EASTRES / QDYHRLPLS [GP_Gibbs] the result was 15 nM (6 of 6 replicates).

Source: Li et al. 2023 (doi:10.1038/s41467-023-39022-2), MIT Lincoln Laboratory and A-Alpha Bio; data file from the FLAb repository.